Measurements from US7615359B2, “Copolymer 1 related polypeptides for use as molecular weight markers and for therapeutic use” (Yeda Research and Development Co., Ltd., priority 1998, dated 2009).

B1: AKKYAKKEKAYAKKAEKAAKKAEAKAYKAAEAKKKAKAEAKKYAKAAKAEKKEYAAAEAKYKAEAAKAAAKEAAYEA (peptide)
chain: AKKYAKKEKAYAKKAEKAAKKAEAKAYKAAEAKKKAKAEAKKYAKAAKAEKKEYAAAEAKYKAEAAKAAAKEAAYEA
B2: AKKYAKKEKAYAKKAEKAAKKAEAKAYKAAEAKKKAKAEAKKYAKAAKAEKKEYAAAEAKYKAEAAKKAYKAEAAKAAAKEAAYEA (peptide)
chain: AKKYAKKEKAYAKKAEKAAKKAEAKAYKAAEAKKKAKAEAKKYAKAAKAEKKEYAAAEAKYKAEAAKKAYKAEAAKAAAKEAAYEA

Test system: SC-14 human Cop 1 specific T cell clone
Assay: Proliferation of Cop 1 specific T cell line (3H-thymidine uptake)
Conditions: 10 µg antigen; relative to Cop 1

| Molecule | 3H-Thymidine incorporation, % Cop1, SC-14 |
| --- | --- |
| AKKYAKKEKAYAKKAEKAAKKAEAKAYKAAEAKKKAEAKYKAEAAKAAAKEAAYEA [TV-56] | 117% |
| glatiramer acetate [compound 55396, reference compound] | 107% |
| glatiramer acetate [compound 55296, reference compound] | 95% |
| AKKYAKKEKAAKKAYKKEAKAKAAEAAAKEAAYEA [TV-35] | 0% |
| B1 | 83% |
| B2 | 65% |
